Earlier results as cited in patent publication US6395467B1 (priority 1998, dated 2002).

System: rabbit renal cortical slices
Settings: 50% w/v; cited from earlier work

CC(N)=O [Acetamide]
toxicity to kidney slices: essentially non-toxic
